The values below come from patent publication US7935869B2, “Chimeric gene with several herbicide tolerance genes, plant cell and plant resistant to several herbicides” (Bayer S.A.S., priority 1996, dated 2011).

The structures appear in SMILES notation.

Test [1] has as its system wild-type tobacco without tolerance gene. The experiment in a line: Postemergence tolerance of tobacco, percentage destruction. Conditions: 17 days after treatment. The class given is in vivo. The method, then:
(§1) In this trial, each test is performed on a sample of 10 plants, 10 plants being kept untreated.
(§2) All the treatments are performed by spraying at the rate of 500 l of spraying mixture per hectare.
(§3) For the postemergence treatment, sowing is performed and then the plants are transplanted in 9 cm×9 cm pots.
(§4) The postemergence treatments are carried out at a well developed stage (3-4 leaves). Batches of plants, respectively wild-type and genetically transformed, obtained above are divided into several parts, with: […]

The test system of test [2] is PBD6 tobacco plants HPPD + OXY. The test is described as above. The class given is in vivo. Conditions: 17 days after treatment. The method, then:
as §1, §2, §3, §4

Take `N#Cc1cc(Br)c(O)c(Br)c1` [bromoxynil]: the “phytotoxicity, percentage destruction” value was determined as 0% in test [1] (400 g/ha postemergence), 0% in test [1] (800 g/ha postemergence), 3% in test [2] (400 g/ha postemergence) and 0% in test [2] (800 g/ha postemergence).
